Biological target: Tyrosine-protein kinase Lck (Homo sapiens, UniProt P06239)

Amino acid sequences for entries named in this document (tags omitted). A change or cut given only in a name is not applied to a line headed by its entry.
UniProt P06239: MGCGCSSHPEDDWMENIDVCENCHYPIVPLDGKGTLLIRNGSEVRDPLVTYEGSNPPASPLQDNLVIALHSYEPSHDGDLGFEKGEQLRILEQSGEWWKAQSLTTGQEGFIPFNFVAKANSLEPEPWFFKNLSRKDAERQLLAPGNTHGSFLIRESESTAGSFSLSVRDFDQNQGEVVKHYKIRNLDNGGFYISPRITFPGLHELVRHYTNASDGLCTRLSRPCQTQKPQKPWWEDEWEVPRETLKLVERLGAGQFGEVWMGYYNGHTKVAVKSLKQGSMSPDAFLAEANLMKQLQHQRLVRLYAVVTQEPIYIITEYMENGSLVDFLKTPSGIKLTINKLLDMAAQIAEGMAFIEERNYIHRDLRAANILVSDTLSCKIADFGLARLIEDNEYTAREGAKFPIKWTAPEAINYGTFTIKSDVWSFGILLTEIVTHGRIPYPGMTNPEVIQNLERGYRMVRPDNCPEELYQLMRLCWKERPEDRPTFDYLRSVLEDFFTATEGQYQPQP

SMILES	IC50
CCN(CC)CC(=O)Nc1ccc(C(F)(F)F)cc1NC(=O)c1ccc(C)c(-c2ccc3nc(NC)ncc3c2)c1	0.5 nM
Cc1ccc(C(=O)Nc2cccc(C(F)(F)F)c2)cc1-c1ccc2nc(N)ncc2c1	0.2 nM

Source: ChEMBL document CHEMBL1149344, “Discovery of aminoquinazolines as potent, orally bioavailable inhibitors of Lck: synthesis, SAR, and in vivo anti-inflammatory activity” (J Med Chem, 2006)
